Measured values reported in patent publication US20260000728A1, “PEPTIDE HAVING ACE INHIBITORY ACTIVITY AND COMPOSITION CONTAINING THE SAME” (Vedan International (Holdings) Limited, priority 2024, published 2026).
Several values for one entry are separate records, joined by “and”; a condition that tells them apart may be missing. Identical values can stand only once. Like-named read-outs stand apart in the source and are kept apart here.

Sequences of proteins named here, by UniProt entry; tags and fusion partners are left off. Residues count along the entry.
UniProt P12821, 30-1306, species assumed: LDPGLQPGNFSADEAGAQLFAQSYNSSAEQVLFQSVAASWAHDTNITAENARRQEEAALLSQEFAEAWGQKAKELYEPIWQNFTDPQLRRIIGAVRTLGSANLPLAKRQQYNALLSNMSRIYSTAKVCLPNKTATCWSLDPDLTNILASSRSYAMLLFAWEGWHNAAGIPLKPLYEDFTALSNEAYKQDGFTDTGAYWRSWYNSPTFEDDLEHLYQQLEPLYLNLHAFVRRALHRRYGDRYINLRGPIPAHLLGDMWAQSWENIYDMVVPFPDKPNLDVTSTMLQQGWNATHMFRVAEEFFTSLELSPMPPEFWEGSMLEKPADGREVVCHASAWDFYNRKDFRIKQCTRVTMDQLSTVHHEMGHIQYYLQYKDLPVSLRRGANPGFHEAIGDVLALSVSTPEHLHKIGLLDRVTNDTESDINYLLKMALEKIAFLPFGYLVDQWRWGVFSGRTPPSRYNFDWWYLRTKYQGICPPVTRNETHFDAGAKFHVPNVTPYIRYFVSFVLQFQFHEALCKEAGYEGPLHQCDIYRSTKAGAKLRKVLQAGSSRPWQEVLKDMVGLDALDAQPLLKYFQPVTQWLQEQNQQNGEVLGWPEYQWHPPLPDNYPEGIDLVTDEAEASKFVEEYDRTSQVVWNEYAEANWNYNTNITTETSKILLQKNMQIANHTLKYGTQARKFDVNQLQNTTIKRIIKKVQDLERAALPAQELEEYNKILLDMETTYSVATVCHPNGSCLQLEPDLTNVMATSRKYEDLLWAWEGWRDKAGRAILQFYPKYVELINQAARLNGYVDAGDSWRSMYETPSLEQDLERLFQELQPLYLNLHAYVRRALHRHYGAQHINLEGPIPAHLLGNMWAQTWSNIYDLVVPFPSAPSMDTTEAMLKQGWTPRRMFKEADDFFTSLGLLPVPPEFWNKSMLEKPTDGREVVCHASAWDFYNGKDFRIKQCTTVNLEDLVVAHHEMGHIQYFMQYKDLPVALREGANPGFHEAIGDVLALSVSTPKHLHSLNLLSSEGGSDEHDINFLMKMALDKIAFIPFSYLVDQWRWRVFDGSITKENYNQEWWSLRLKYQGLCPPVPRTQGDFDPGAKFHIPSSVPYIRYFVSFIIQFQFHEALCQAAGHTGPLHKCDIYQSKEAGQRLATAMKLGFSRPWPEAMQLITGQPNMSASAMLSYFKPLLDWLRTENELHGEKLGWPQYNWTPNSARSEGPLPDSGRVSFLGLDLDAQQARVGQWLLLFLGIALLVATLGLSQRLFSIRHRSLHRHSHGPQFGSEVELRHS

Target: ACE (Homo sapiens, UniProt P12821)
Assay: IC50 of each tripeptide in inhibiting ACE activity
Format: biochemical
[1] = read-out: IC50 in inhibiting ACE activity (converted)

SMILES	IC50 [1]	IC50 (IC50 in inhibiting ACE activity) [mM]
CC(C)C[C@H](N)C(=O)N[C@@H](CO)C(=O)N[C@@H](Cc1ccccc1)C(=O)O [LSF, Leu-Ser-Phe]	1.2 mM	
CC(C)C[C@H](N)C(=O)N[C@H](C(=O)N[C@@H](Cc1ccccc1)C(=O)O)[C@@H](C)O [LTF, Leu-Thr-Phe]	0.791 mM and 0.783 mM	
CC(C)[C@H](N)C(=O)N[C@H](C(=O)N[C@@H](Cc1ccccc1)C(=O)O)[C@@H](C)O [VTF, Val-Thr-Phe]	1.56 mM and 1.55 mM	
CC(C)[C@H](NC(=O)[C@@H](N)Cc1ccc(O)cc1)C(=O)N[C@@H](Cc1ccccc1)C(=O)O [YVF, Tyr-Val-Phe]		1.92
